The text below walks through data of patent publication US6541450B1, “Parathyroid hormone analogues for the treatment of osteoporosis” (National Research Council of Canada, priority 1994, dated 2003).

The subject of experiment [1] is ovariectomized (OVX) Sprague-Dawley rats. The settings on record: literature; cited from earlier work.
For experiment [2], the target named is T1, adenylyl cyclase, ROS 17/2 cells (Rattus norvegicus, UniProt P25961).
T1 sequence (P25961 27-591): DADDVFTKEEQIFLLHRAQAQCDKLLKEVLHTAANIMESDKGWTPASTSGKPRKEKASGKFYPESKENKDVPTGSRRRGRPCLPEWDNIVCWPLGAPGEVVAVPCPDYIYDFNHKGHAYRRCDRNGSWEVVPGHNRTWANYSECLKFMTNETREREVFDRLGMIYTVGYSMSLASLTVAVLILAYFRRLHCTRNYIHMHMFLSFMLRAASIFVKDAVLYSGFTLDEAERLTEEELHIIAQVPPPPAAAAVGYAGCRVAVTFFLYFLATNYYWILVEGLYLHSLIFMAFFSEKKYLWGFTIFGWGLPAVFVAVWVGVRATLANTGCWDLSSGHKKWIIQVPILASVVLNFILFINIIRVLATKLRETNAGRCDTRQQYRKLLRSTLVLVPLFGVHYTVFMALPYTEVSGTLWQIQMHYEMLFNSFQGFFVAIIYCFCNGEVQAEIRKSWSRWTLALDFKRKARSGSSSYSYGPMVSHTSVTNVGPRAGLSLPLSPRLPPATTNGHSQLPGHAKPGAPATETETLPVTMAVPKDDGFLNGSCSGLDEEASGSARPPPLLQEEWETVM
The experiment is described as follows: Adenylyl cyclase stimulation, [3H]-cyclic AMP production in ROS 17/2 cells. It counts as cell-based.

For experiment [3], the system named is anesthetized female Sprague-Dawley rats. Nature of the experiment: Hypotensive effect, tail artery pressure in anaesthetized rats. The settings on record: for time to reduction of tail artery pressure: injection into a femoral vein; for dose of maximal hypotensive effect: rat, in vivo.
Experiment [4] deals with ovariectomized (OVX) rats with severely depleted trabecular bone. Nature of the experiment: Bone restoration in OVX rats with severely depleted trabecular bone, treatment from 9 weeks after OVX. It counts as in vivo, rat. The text has this:
Doses were based upon dose-response data on hPTH(1-31)-NH2. […] By the end of the 9th week they had lost about 75% of their femoral trabecular bone mass. […] The fragment could also stimulate trabecular bone growth in much older rates. […] Accordingly, the dosage of 0.6 nmole/100 g of body weight was used in further tests.
In this second example of bone restoration, the abilities of the lactam fragments to restore severely depleted trabecular bone are compared. In this experiment, the 6-week program of once-daily injections of 0.6 nmole of peptide/100 g of body weight of young sexually mature rats was delayed until the end of the 9th week after OVX. At this time, 75% of their trabecular bone had been lost.

Experiment [5] concerns ovariectomized (OVX) Sprague-Dawley rats. The experiment is described as follows: Anabolic activity in ovariectomized rat model, injections from 2nd to 8th week after OVX. The settings on record: subcutaneously injected. The class given is in vivo. From the text:
A full description of the protocol is given in Rixon et al, J. Bone & Mineral Research 9, 1179-1189, 1994 and Whitfield et al Calcif. Tissue Int. 58, 81-87, 1996 incorporated herein by reference. Normal, Sham-OVX (ovariectomized), and OVX Sprague-Dawley rats (3 months-old; 255-260 g) were purchased from
Charles River Laboratories (St. Constant, QC). The rats were randomized into groups of 8 animals which received Purina rat chow and water ad libitum. There were no unscheduled deaths. The animals received 6, once-daily subcutaneous injections/week starting at the end of the second week after OVX, and ending at the end of the 8th week after OVX (i.e., 36 injections). Eight Sham-OVX and 8 OVX controls rats received 36 injections of vehicle (0.15 M NaCl containing 0.001N HCl) while 8 OVX rats received 0.6 nmole of fragment in vehicle/100 g of body weight). At the end of the 8th week after OVX, femurs were removed isolated, cleaned, and cut in half at mid-diaphysis and the proximal half was discarded. […]
The bone-building potencies of the fragments were assessed from the changes in the mean thicknesses (area/perimeter) of the trabeculae in the distal half-femurs from the variously treated animals. […] The mean trabecular thickness was measured using a M4 imaging system and bone morphometric software from Imaging Research Inc., (St. Catherines, ON, Canada). […]

Setting [6] is: intravenous, 0.8 nmol/100 g of body weight.
Setting [7] is: subcutaneous, 0.8 nmol/100 g of body weight.

Each structure is given as a SMILES string. Entries after “also recorded” stand apart in the source; their conditions may differ.

In the case of `CC[C@H](C)[C@H](NC(=O)[C@H](CCC(=O)O)NC(=O)[C@H](CO)NC(=O)[C@@H](NC(=O)[C@@H](N)CO)C(C)C)C(=O)N[C@@H](CCC(N)=O)C(=O)N[C@@H](CC(C)C)C(=O)N[C@@H](CCSC)C(=O)N[C@@H](Cc1c[nH]cn1)C(=O)N[C@@H](CC(N)=O)C(=O)N[C@@H](CC(C)C)C(=O)NCC(=O)N[C@@H](CCCCN)C(=O)N[C@@H](Cc1c[nH]cn1)C(=O)N[C@@H](CC(C)C)C(=O)N[C@@H](CC(N)=O)C(=O)N[C@@H](CO)C(=O)N[C@@H](CCSC)C(=O)N[C@@H](CCC(=O)O)C(=O)N[C@@H](CCCNC(=N)N)C(=O)N[C@H](C(=O)N[C@@H](CCC(=O)O)C(=O)N[C@@H](Cc1c[nH]c2ccccc12)C(=O)N[C@@H](CC(C)C)C(=O)N[C@@H](CCCNC(=N)N)C(=O)N[C@@H](CCCCN)C(=O)N[C@@H](CCCCN)C(=O)N[C@@H](CC(C)C)C(=O)N[C@@H](CCC(N)=O)C(=O)N[C@@H](CC(=O)O)C(=O)N[C@H](C(N)=O)C(C)C)C(C)C` [compound 1, hPTH-(1-31)-NH2], in experiment [1], the “restoration of bone loss in the ovariectomized rat model” value is on record as “fully active”. The “AC-stimulating activity, comparison in words” value in experiment [2] is given as “stimulate AC as strongly as hPTH-(1-34)”. Further, in experiment [3], the “time to reduction of tail artery pressure” value was “about 1 minute” and the “dose of maximal hypotensive effect” value was 0.8 nmol/100 g of body weight. Further, in experiment [3] (intravenous injection), the “hypotensive action, in words” value is listed as “potently hypotensive; also recorded: no significant difference; also recorded: dropped the pressure as much as hPTH-(1-34)”. In experiment [3] (setting [6]), the “reduction of tail artery pressure” value is 51.6±3.3 mm Hg and the “time to maximum drop in tail artery pressure” value is reported as “equally prompt”. The “reduction of tail artery pressure” value in experiment [3] (setting [7]) came to 11.1±1.6 mm Hg. For the same compound, in experiment [4] (1-year-old rats, predepleted 9 weeks after OVX, 36 injections of 0.6 nmole/100 g), the mean trabecular thickness result is “significantly increase the mean trabecular thickness above the normal starting value”. For the same compound, the mean trabecular thickness entry in experiment [4] (3-months-old OVX rats, 9 weeks depletion, 36 injections of 0.8, 0.6, 0.4, 0.2 nmole/100 g) is reported as “dose-dependent increase in the mean trabecular thicknesses”. Moreover, the “osteogenic activity, in words” value in experiment [5] was “equally osteogenic”.
As for `CC[C@H](C)[C@H](NC(=O)[C@H](CCC(=O)O)NC(=O)[C@H](CO)NC(=O)[C@@H](NC(=O)[C@@H](N)CO)C(C)C)C(=O)N[C@@H](CCC(N)=O)C(=O)N[C@@H](CC(C)C)C(=O)N[C@@H](CCSC)C(=O)N[C@@H](Cc1c[nH]cn1)C(=O)N[C@@H](CC(N)=O)C(=O)N[C@@H](CC(C)C)C(=O)NCC(=O)N[C@@H](CCCCN)C(=O)N[C@@H](Cc1c[nH]cn1)C(=O)N[C@@H](CC(C)C)C(=O)N[C@@H](CC(N)=O)C(=O)N[C@@H](CO)C(=O)N[C@@H](CCSC)C(=O)N[C@@H](CCC(=O)O)C(=O)N[C@@H](CCCNC(=N)N)C(=O)N[C@H](C(=O)N[C@@H](CCC(=O)O)C(=O)N[C@@H](Cc1c[nH]c2ccccc12)C(=O)N[C@@H](CC(C)C)C(=O)N[C@@H](CCCNC(=N)N)C(=O)N[C@@H](CCCCN)C(=O)N[C@@H](CCCCN)C(=O)N[C@@H](CC(C)C)C(=O)N[C@@H](CCC(N)=O)C(=O)N[C@@H](CC(=O)O)C(=O)N[C@H](C(=O)N[C@@H](Cc1c[nH]cn1)C(=O)N[C@@H](CC(N)=O)C(=O)N[C@@H](Cc1ccccc1)C(=O)O)C(C)C)C(C)C` [hPTH-(1-34), reference compound], the “time to reduction of tail artery pressure” value in experiment [3] was “about 1 minute”. Besides, the “hypotensive action, in words” value is on record as “no significant difference” in experiment [3] (intravenous injection) and “much more hypotensive; also recorded: at least twice as effective (P<0.01) as the other two molecules” in experiment [3] (subcutaneous injection). Moreover, the “reduction of tail artery pressure” value in experiment [3] (setting [6]) stood at 50.9±5.6 mm Hg; in experiment [3] (setting [7]), 27.9±3.6 mm Hg. For the same compound, the “dose of maximal hypotensive effect” value in experiment [3] is reported as 0.8 nmol/100 g of body weight. For the same compound, in experiment [5], the “osteogenic activity, in words” value was “significantly more osteogenic than the other two molecules; also recorded: strongest hypotensive and osteogenic actions”.
